# Values quoted from earlier work in patent publication US20140342369A1, “HAPLOID CELLS” (published 2014).
# Tested on: mammalian fucosyl-transferases FucTIII, V, VI, and VII
# Details: previously shown (Büchsel et al., 1980 and others); cited from earlier work
smiles,measurement,value
O=CC[C@@H](O)[C@@H](O)[C@H](O)CO,inhibition of fucosyl-transferases,specifically inhibit
